Here are results for two substances from PMC2805098.

The data set concerns NADH. Nature of the data set: purified protein, by the assay type. The conditions noted are these: 25 °C, pH 7.2.

With “Phe223Ala MTHFR (Escherichia coli K-12; F223A)”, for the setting “other: 400 μM CH2-H4folate, anaerobic”, the Km came to 140 ± 7 µM. Moreover, under “other: […] μM menadione”, the Km is 585 ± 200 µM and the kcat is 22 s⁻¹.
Consider “Phe223Leu MTHFR (Escherichia coli K-12; F223L)”, for which, under “other: 50 μM CH2-H4folate, anaerobic”, the Km came out at 236 ± 36 µM. Under “other: […] μM menadione”, the Km came to 470 ± 115 µM and the kcat came out at 31 s⁻¹.

For orientation: Km means the concentration of substrate that gives half-maximal velocity. In general, kcat refers to the number of substrate molecules converted per active site and unit of time at saturation.
